Assay results taken from patent publication US7183251B1, “hCG therapy for the treatment of breast cancer” (Fox Chase Cancer Center, priority 1998, dated 2007).
Where “and” joins values, the source holds several entries; their conditions need not be identical. Identical values can stand only once.

Key:
[1] = system: DMBA-induced rat mammary carcinomas; assay: Effect on early tumor development after DMBA (Regimens 4-6); assay type: in vivo; settings: 100 IU/day ip 40 days starting 21 days after DMBA, Regimens 5, 6
Description: Evaluation of the therapeutic efficiency of r-hCG on mammary cancer. The tumoristatic and tumoricidal efficacy of r-hCG and u-hCG on early and advanced mammary cancer was tested in intact virgin rats that had received a single dose of DMBA when they were 45 days old (FIG. 4, Regimens 4–9). The effect on early tumor development was tested under Regimens 4, 5, and 6. It was evaluated by initiating r-hCG treatment 20 days after DMBA administration, when early lesions, such as intraductal proliferations (IDPs) and carcinomas in situ (CIS) are already present, but there are no palpable tumors as yet. The effect on advanced tumor development was evaluated by starting the hormonal treatment 60 days after DMBA administration, or when palpable tumors had reached at least 1 cm in maximal diameter (Regimens 7, 8, and 9). In both groups the hormone was administered for 40 days and final tumorigenic response was evaluated 20 weeks post-DMBA administration. The effect of the hormonal treatment on the rate of tumor growth, with special emphasis on tumor regression, absence of skin ulceration, and final tumor size and necrosis were evaluated at the time of assessment of the final tumorigenic response.
For Regimens 4–9, 300 animals were inoculated with a single ig dose of 8 mg DMBA/100 g bw when they were 45 days old. Tumorigenic response was evaluated by palpation of the right and left mammary cervical, thoracic, abdominal and inguinal areas and from ventral to dorsolateral extensions of the glands. All tumors were sequentially numbered in the order they had appeared, their location was recorded, and the rate of tumor growth was determined by measurement of tumor size with a Vernier caliper. All changes in the health status of the animals, rapid tumor growth or skin ulceration were recorded. Those animals in which the tumors were excessively large or became ulcerated were euthanized, irrespectively of the stage of the hormonal treatment, in compliance with IACUC regulations. Those animals that were euthanized before initiation or before the completion of the hormonal treatments were deleted from the statistical analysis of the final tumorigenic response.
Regimens 4–6 were designed for testing the effect of the hormonal treatments on early tumor development. Twenty one days after DMBA administration those animals allocated to Regimen 4 started receiving a daily ip injection of 0.5 ml placebo for 40 days. Under Regimens 5 and 6 the same number of animals received for 40 days 100 IU/day of r-hCG or u-hCG, respectively. All the animals were palpated biweekly for detection of tumor development and determination of tumor growth rate. Final tumorigenic response was evaluated 20 weeks after administration of DMBA.
Evaluation of Final Tumorigenic Response. […] The tumors were rapidly dissected, measured in three dimensions, and serially sliced. Adjacent slices were:
The following criteria were utilized for evaluating the final tumorigenic response:
1. Rate of tumor growth, based on sequential measurement of the two largest diameters of tumors in live animals utilizing a Vernier Caliper and expressing the results in mm.
2. Final tumor size, based on measurement of the length, width and height of dissected tumors with a Vernier Caliper. Results were expressed in mm. A progressively smaller tumor size in successive measurements was indicative of tumor regression. Palpable tumors that had disappeared at the time of dissection were considered to be 100% regressed. The mammary tissue in which the tumor had been originally identified was fixed in 10% NBF for histopathological analysis.
5. Statistical Analysis. The significance of the differences in tumorigenic response among the groups was determined by Chi Square analysis and Student's T test.

[2] = system: progesterone receptors (PgR); assay: r-hCG in primary breast cancer: progesterone receptor immunocytochemistry; assay type: in vivo, human; settings: 2-week r-hCG treatment; for cases in which positive initial NB became PgR negative after treatment: positive = more than 20% of tumoral cells
Description: The efficacy of hCG was evaluated by treating with this hormone patients with newly diagnosed primary breast cancer. The efficacy of treatment was assessed by determining whether administration of 10,000 IU hCG on alternate days for 2 weeks to women with newly diagnosed breast cancer will reduce tumor size, inhibit cell proliferation, and modify the percentage of cells expressing estrogen and progesterone receptors. The systemic effect of the hormone was evaluated by determining serum levels of pituitary and ovarian hormones at various times of treatment. R-hCG was used in this study.
Hormonal Treatment: Dose and Schedule. The patients selected for this study received intramuscularly (IM) 10,000 units of the experimental drug, recombinant human chorionic gonadotropin on days 1, 3, 5, 7, 9, 11 and 13. The lyophilysate was reconstituted with normal physological saline immediately before injection in the gluteus. The controls were blinded and received IM injections of placebo. At each injection the patients were seen and informed about there concurrent medication and possible side effects. […] The efficacy of treatment was assessed by evaluating in the residual tumor resected by lumpectomy or mastectomy at the end of the two-week r-hCG treatment the same parameters evaluated in the initial core needle biopsies.
Surrogate Marker Analysis. The effects of r-hCG on the breast tumors was evaluated by using immunocytochemistry, performed in both core biopsies of the tumor and in residual tumor present in lumpectomy or mastectomy specimens. The following surrogate markers were evaluated using immunocytochemistry: Rate of cell proliferation, percentage of cells positive for estrogen (ER) and progesterone receptors (PgR) and immunoreactivity for inhibin. […] The study of lymph nodes of the same patients from which the primary tumors were studies was also analyzed by the same techniques. […]
Procedures. […] Cell proliferation was evaluated by counting the number of cells expressing the nuclear antigen Ki67 in the outer part of the nucleolus and in the granular component of the nucleus. […]

r-hCG: recombinant human chorionic gonadotropin, glycoprotein hormone composed of two non-covalently linked (α and β) subunits
No. An. With Tumors ([1]; 20 weeks post-DMBA): 38/49 and 38
No. Tumors/Animal [1]: 2.2
Percentage (animals with tumors) [1]: 77.5
Total No. Tumors [1]: 111
cases with positive NB in which lymph node metastases were negative for PgR [2]: five
cases in which positive initial NB became PgR negative after treatment [2]: six
cases in which positive initial NB became PgR negative after treatment ([2]; listed as Recombinant hCG): six out of ten
